Data from article PMC6803667, “Binding site plasticity in viral PPxY Late domain recognition by the third WW domain of human NEDD4” (Scientific Reports, 2019).

Amino acid sequences for entries named in this document (tags omitted). Residues count along the entry.
UniProt P46934, 834-878: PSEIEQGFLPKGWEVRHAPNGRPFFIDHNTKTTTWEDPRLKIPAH

Target: T1, hNEDD4-WW3 (Homo sapiens, UniProt P46934)
T1 construct: comprising aminoacids 834–878 (UniProtKB/Swiss-Prot code P46934); GST-His (pETM-30, TEV site) (N, cleaved yes); made in house; host or cells: E. coli BL21/DE3 is printed only for the pETM-11 NMR construct
Type: binding

SMILES: CC(=O)N1CCC[C@H]1C(=O)N1CCC[C@H]1C(=O)N1CCC[C@H]1C(=O)N[C@@H](Cc1ccc(O)cc1)C(N)=O [PPPY]
- binding selectivity between hNEDD4-WW3, YAP-WW1 and YAP-WW2: do not distinguish between the three WW domains
